In patent US20240190828A1, “Small Molecule Inhibitors of PBRM1-BD2” (The Medical College of Wisconsin, Inc., priority 2021, published 2024):
Where two headings read alike, the source gives them in different places.

By UniProt entry, the sequences of proteins in these tests, tags left out. Residues count along the entry.
UniProt P51531, 1378-1506: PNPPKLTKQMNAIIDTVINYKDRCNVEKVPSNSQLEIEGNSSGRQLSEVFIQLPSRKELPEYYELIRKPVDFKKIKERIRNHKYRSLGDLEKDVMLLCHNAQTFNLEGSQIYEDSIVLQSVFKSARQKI
UniProt Q86U86, 177-287: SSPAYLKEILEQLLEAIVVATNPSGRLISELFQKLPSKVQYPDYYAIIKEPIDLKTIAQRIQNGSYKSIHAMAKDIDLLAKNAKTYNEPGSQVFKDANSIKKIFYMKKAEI
UniProt P51532, 1453-1564: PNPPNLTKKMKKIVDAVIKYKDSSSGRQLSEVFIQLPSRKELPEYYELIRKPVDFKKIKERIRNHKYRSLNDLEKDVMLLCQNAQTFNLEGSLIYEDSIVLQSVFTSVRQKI

Assays:
Type in all cases: binding
SMARCA2 [1] = molecular target: T1, SMARCA2 (Homo sapiens (Human), UniProt P51531); experiment: Isothermal titration calorimetry (ITC)
PBRM1-BD2 = PBRM1-BD2 (Homo sapiens (Human), UniProt Q86U86)
SMARCA4 = SMARCA4 (Homo sapiens (Human), UniProt P51532); experiment: Isothermal titration calorimetry (ITC)
SMARCA2 [2] = molecular target: T1, SMARCA2; experiment: DSF selectivity profiling

Work on `O=C1NC(c2c(F)cccc2Cl)Nc2ccccc21` (stereo not drawn) [Compound 5, 2-(2-Chloro-6-fluorophenyl)-2,3-dihydroquinazolin-4(1H)-one] yielded a Kd (SMARCA2 [1]; ITC, NB = did not bind) of 15.9 ± 9.73 µM.

For `O=C1NC(c2c(F)cccc2Cl)Nc2cccc(Cl)c21` (stereo not drawn) [Compound 11, 5-Chloro-2-(2-chloro-6-fluorophenyl)-2,3-dihydroquinazolin-4(1H)-one], the Kd (SMARCA2 [1]) was 18.4 ± 9.9 µM.

`CC1CC(=O)NN=C1c1cccs1` (stereo not drawn) [Compound 6g] was tested, and the “LE (Ligand Efficiency)” value (PBRM1-BD2) was 0.3 and the Kd (PBRM1-BD2; NMR titration, chemical shift perturbations vs fragment concentration) was 1210 ± 267 µM.

In the case of `CCC(/C=C1\CCn2c1nc(=O)c1c(Cl)cccc12)CC` [Compound 7, (E)-6-Chloro-3-(2-ethylbutylidene)-2,3-dihydropyrrolo[1,2-a]quinazolin-5(1H)-one, reference compound], the Kd (SMARCA4) is reported as 5.03 µM and the “SMARCA2 ΔTm” value (SMARCA2 [2]) is reported as greater than 3 °C.
